Three molecules from PubChem BioAssay AID2465 (Broad Institute, 2010) can be followed below.

This is a selection; strong and weak results do not stand in their true shares. Active and inactive are the calls of the source. No stated cut-off is given here; in the data, active means caspase activation above about 5.9%; inconclusive means no clear call, values can overlap the other calls; inactive means below about 2.2%.

This assay can be described thus: A1 inhibitors via caspase activation, primary screen, cell-based, luminescence, HTS, two replicates (AID 2465). The note with it: MEF A1-2A-BIM cells, caspase-Glo luminescence, 3 h; active compounds read high; percent of clofoctol response, DMSO zero; concentration not given here. The gist of the method: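 system = A1-2A-BIM-expressing MEF cells | quantity = 2500 MEF cells/well | dosing = 50 nL compound per well, pinned | schedule = overnight cell settling, then 3 h compound exposure, 37 °C | signal = luminescence from DEVD-luciferin Caspase-Glo reagent, 1:1 in 50 mM HEPES, 1 h RT | read-out = Caspase-3/7 activation, seen as rise in luminescence signal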
In the case of `COc1ccc(CN2/C(=N/P(=O)(Oc3ccccc3)Oc3ccccc3)CC(C)=CC2C)cc1` (stereo not drawn), the caspase activation was inactive: -0.0411%.
Turning to `COc1ccc(CN2/C(=N\P(=O)(Oc3ccccc3)Oc3ccccc3)Cc3ccccc3C2C2CC2)cc1` (stereo not drawn), the caspase activation is inactive: -1.07%.
In the case of `C=CC1C=C(C)C/C(=N\P(=O)(Oc2ccccc2)Oc2ccccc2)N1Cc1ccc(OC)cc1` (stereo not drawn) it was inactive: -0.282%.
